Entries after “also recorded” stand apart in the source; their conditions may differ.
Test system: hepatoma cell H4IIE cells
Settings: 24 h, 0.07–2.5 µM

`CCN(CC)CC(=O)Nc1nc(-c2cc3ccccc3oc2=O)cs1` [Compound 6c, 2-(Diethylamino)-N-(4-(2-oxo-2H-chromen-3-yl)thiazol-2-yl)acetamide] was tested, and the “H4IIE hepatoma cell toxicity (in words)” value was “negligible cell death and was non-toxic; also recorded: negligible cell death”.
